The record followed here is patent publication US12714711B2, “Salts of neuroceuticals and uses thereof” (priority 2020, dated 2026).

The conditions of series [1]: rat, in vivo, po, 83 mg/kg. How it is done: All animals used in this study were adult rats (at least 2.5 months of age).
Male Sprague-Dawley rats having a bodyweight between 250-300 g were randomly assigned to two groups. […] The chemicals were suspended in sesame oil and administrated by single oral gavage at 2 ml/kg. All rats were fasted overnight with free access to water before oral administration of the testing compositions. On the day of dosing, the blood samples were collected at 0 min (prior to dosing), and 0.25, 0.5, 1, 2, 4, 6, 8, and 24 hr post-dosing.
Blood samples were collected from rat jugular veins and transferred into tubes coated with sodium heparin. To obtain plasma, the blood samples were centrifuged at 2,500×g for 15 min at 4° C. and the supernatants were collected and kept frozen in a freezer at −80° C., until they were analyzed.
The plasma concentration of donepezil was determined by LC/MS. The chromatographic separation was carried out on a 5 μm EVO C8 100 Å LC column (100×4.6 mm, Kinetex®). The mobile phase was 0.1% formic acid in water and acetonitrile:methanol=8:2 set as gradient. Flow rate used was 0.3 mL/min. Column temperature was maintained at 40° C. and the injection volume was 30 μL.
The pharmacokinetic parameters were calculated using non-compartmental analysis (NCA) with WinNonlin to assess the systemic exposure of donepezil in rats.

The conditions of series [2]: GTT, acute oral, risperidone 12 mg/kg.

As for `CN1CCN(C2=Nc3cc(Cl)ccc3Nc3ccccc32)CC1.O=C(O)c1cccnc1` [clozapine:nicotinic acid 1:1 salt], the peak level in series [1] (Cmax) was 316 ng/mL.

For `Cc1nc2n(c(=O)c1CCN1CCC(c3noc4cc(F)ccc34)CC1)CCCC2.O=C(O)c1cccnc1` [risperidone:nicotinic acid 1:1 salt, resperidone:nicotinic acid 1:1 salt], the “Blood glucose level compared to vehicle after 120 min” value in series [2] came to 1.19.
